Results taken from patent US8304427B2, “Acylthiourea compound or salt thereof, and use thereof” (Taiho Pharmaceutical Co., Ltd., priority 2008, dated 2012).

Chains of the proteins cited; added tags and fusions are not shown. Residues count along the entry.
UniProt P08581, 956-1390 limits assumed: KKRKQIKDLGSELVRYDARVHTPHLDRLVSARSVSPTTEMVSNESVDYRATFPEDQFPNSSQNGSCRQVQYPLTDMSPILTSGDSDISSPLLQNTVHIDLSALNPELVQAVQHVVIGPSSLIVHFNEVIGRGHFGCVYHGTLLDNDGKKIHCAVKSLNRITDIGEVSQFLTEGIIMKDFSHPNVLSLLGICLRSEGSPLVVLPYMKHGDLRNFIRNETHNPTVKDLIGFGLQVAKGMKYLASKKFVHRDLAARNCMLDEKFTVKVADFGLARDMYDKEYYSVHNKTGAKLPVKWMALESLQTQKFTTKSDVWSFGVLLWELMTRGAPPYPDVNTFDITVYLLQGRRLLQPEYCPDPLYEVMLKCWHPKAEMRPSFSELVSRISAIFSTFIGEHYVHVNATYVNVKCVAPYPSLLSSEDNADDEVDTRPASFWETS

Biological target: c-Met (Homo sapiens, UniProt P08581)
Assay: c-Met inhibitory assay using AlphaScreen (Method A)
Conditions: read-out: c-Met IC50, ATP 20 μM

COc1cc2nccc(Oc3ccc(NC(=S)NC(=O)Cc4ccccc4)cc3F)c2cc1C(=O)NCC(=O)N1CC[C@H](F)C1
IC50: 107 nM
